The values that follow are results of earlier work, collected in US20260076959A1, “COMBINATION PRODUCT, SALT, AND USE THEREOF IN TREATING NEURODEGENERATIVE DISEASES OR DISORDERS” (SHANGHAI HENLIUS BIOTECH, INC., priority 2023, published 2026).

This series has as its system ALS patients. The settings on record: cited from earlier work.

Take `Nc1nc2ccc(OC(F)(F)F)cc2s1` [riluzole]: the “extension of patients' survival” value is listed as 3 months.
